Source: ChEMBL document CHEMBL1158625, “Design of 1-piperazinyl-4-arylphthalazines as potent Smoothened antagonists” (Bioorg Med Chem Lett, 2010)

Sequences of proteins named here, by UniProt entry; tags and fusion partners are left off.
UniProt Q99835, whole entry: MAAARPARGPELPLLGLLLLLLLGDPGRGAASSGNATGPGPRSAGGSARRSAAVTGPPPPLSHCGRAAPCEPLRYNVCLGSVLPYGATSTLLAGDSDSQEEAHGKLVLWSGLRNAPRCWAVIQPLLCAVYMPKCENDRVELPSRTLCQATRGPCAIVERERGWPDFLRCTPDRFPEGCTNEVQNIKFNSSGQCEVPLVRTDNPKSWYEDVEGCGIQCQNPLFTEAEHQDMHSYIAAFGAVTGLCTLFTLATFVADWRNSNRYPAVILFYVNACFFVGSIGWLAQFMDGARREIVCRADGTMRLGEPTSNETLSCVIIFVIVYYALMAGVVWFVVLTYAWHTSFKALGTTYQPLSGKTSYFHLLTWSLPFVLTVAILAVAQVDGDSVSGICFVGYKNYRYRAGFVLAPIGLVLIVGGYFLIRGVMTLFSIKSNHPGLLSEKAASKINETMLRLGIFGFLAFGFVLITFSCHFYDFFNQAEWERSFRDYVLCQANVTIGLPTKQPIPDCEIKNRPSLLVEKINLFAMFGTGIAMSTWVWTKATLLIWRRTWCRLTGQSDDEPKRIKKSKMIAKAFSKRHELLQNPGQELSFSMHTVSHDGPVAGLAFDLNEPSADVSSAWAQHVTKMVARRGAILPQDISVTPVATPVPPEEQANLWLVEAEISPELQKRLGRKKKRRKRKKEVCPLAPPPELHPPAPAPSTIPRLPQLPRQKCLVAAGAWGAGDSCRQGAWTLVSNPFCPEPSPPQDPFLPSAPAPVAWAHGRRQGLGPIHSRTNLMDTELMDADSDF

Biological target: Protein smoothened (Homo sapiens, UniProt Q99835)
Assay: Inhibition of human SMO expressed in HEPM cells
Format: cell-based

| SMILES | IC50 [nM] |
| --- | --- |
| N#Cc1cccc(-c2nnc(N3CCN(C(=O)c4ccccc4)CC3)c3ccccc23)c1 | 212 |
| Cc1ccccc1-c1nnc(N2CCN(C(=O)c3ccccc3)CC2)c2ccccc12 | 15 |
| O=C(c1ccccc1)N1CCN(c2nnc(-c3ccccc3Cl)c3ccccc23)CC1 | 20.3 |
| C[C@H]1CN(c2nnc(-c3ccccn3)c3ccccc23)CCN1C(=O)c1ccccc1 | 110 |
| CC(=O)N1CCN(c2nnc(-c3ccccc3)c3ccccc23)CC1 | 91 |
| O=C(c1ccccc1)N1CCN(c2nnc(-c3ccccc3)c3ccccc23)CC1 | 19 |
| C[C@H]1CN(c2nnc(-c3ccncc3)c3ccccc23)CCN1C(=O)c1ccccc1 | 96 |
| O=C(c1nccs1)N1CCN(c2nnc(-c3ccccc3)c3ccccc23)CC1 | 9.5 |
| Cc1ccc(-c2nnc(N3CCN(C(=O)c4ccccc4)[C@@H](C)C3)c3ccccc23)cc1 | 3.2 |
| C[C@H]1CN(c2nnc(-c3ccc(Cl)cc3)c3ccccc23)CCN1C(=O)c1ccccc1 | 7 |
| C[C@H]1CN(c2nnc(-c3ccc(F)cc3)c3ccccc23)CCN1C(=O)c1ccccc1 | 11.8 |
| COc1ccc(-c2nnc(N3CCN(C(=O)c4ccccc4)CC3)c3ccccc23)cc1 | 15 |
| O=C(c1ccccc1)N1CCN(c2nnc(-c3ccc(F)cc3)c3ccccc23)CC1 | 10.8 |
| COc1cccc(-c2nnc(N3CCN(C(=O)c4ccccc4)CC3)c3ccccc23)c1 | 20 |
| C[C@H]1CN(c2nnc(-c3ccc(C(F)(F)F)cc3)c3ccccc23)CCN1C(=O)c1ccccc1 | 3.6 |
| Cc1ccc(-c2nnc(N3CCN(C(=O)c4ccccc4)C[C@H]3C)c3ccccc23)cc1 | 0.4 |
| C[C@H]1CN(c2nnc(-c3cccnc3)c3ccccc23)CCN1C(=O)c1ccccc1 | 213 |

| SMILES | IC50 [nM] |
| --- | --- |
| C[C@H]1CN(c2nnc(-c3ncco3)c3ccccc23)CCN1C(=O)c1ccccc1 | 2700 |
| C[C@@H]1CN(C(=O)c2ccccc2)CCN1c1nnc(-c2ccc(C3CC3)cc2)c2ccccc12 | 2.3 |
| CC(C)c1ccc(-c2nnc(N3CCN(C(=O)c4ccccc4)C[C@H]3C)c3ccccc23)cc1 | 7.3 |
| C[C@@H]1CN(C(=O)c2ccccc2)CCN1c1nnc(-c2ccc(C(C)(C)C)cc2)c2ccccc12 | 10.1 |
| C[C@@H]1CN(C(=O)c2ccccc2)CCN1c1nnc(-c2ccc(CO)cc2)c2ccccc12 | 2.7 |
| C[C@@H]1CN(C(=O)c2ccccc2)CCN1c1nnc(-c2ccc(C#N)cc2)c2ccccc12 | 3.1 |
| C[C@@H]1CN(C(=O)c2ccccc2)CCN1c1nnc(-c2ccc(N(C)C)cc2)c2ccccc12 | 5.2 |
| C[C@@H]1CN(C(=O)c2ccccc2)CCN1c1nnc(-c2ccc(C(F)(F)F)cc2)c2ccccc12 | 2.8 |
| C[C@@H]1CN(C(=O)c2ccccc2)CCN1c1nnc(-c2ccccc2)c2ccccc12 | 2.2 |
| O=C(c1ccccc1)N1CCN(c2nnc(-c3ccc(Cl)c(Cl)c3)c3ccccc23)CC1 | 17.3 |
| O=C(c1ccccc1)N1CCN(c2nnc(-c3ccc(Cl)cc3)c3ccccc23)CC1 | 5.2 |
| Cc1ccc(-c2nnc(N3CCN(C(=O)c4ccccc4)CC3)c3ccccc23)cc1 | 4.4 |
| C[C@H]1CN(c2nnc(-c3ccccc3)c3ccccc23)CCN1C(=O)c1ccccc1 | 5.3 |
| C[C@H]1CN(C(=O)c2ccccc2)CCN1c1nnc(-c2ccccc2)c2ccccc12 | 11 |
| C[C@H]1CN(c2nnc(N3CC=CC=N3)c3ccccc23)CCN1C(=O)c1ccccc1 | 2340 |
| C[C@@H]1CN(c2nnc(-c3ccccc3)c3ccccc23)CCN1C(=O)c1ccccc1 | 13 |
| C[C@@H]1CN(C(=O)c2ccccc2)CCN1c1nnc(-c2ccc(Cl)cc2)c2ccccc12 | 0.7 |
